Our source for the IC50 values is ChEMBL document CHEMBL4004880.

Each structure is given as a SMILES string.

The assay can be described thus: Inhibition of Escherichia coli thymidylate synthase using dUMP/(6R,S)-tetrahydrofolate as substrate/co-factor by spectrophotometric method.

By IC50 is commonly meant the midpoint of a concentration-inhibition curve. Read a low IC50 as inhibition by little substance.

Compound `Cc1nc(=O)c2cc(CN(C)c3ccc(C(=O)N[C@@H](CCC(=O)O)C(=O)O)s3)ccc2[nH]1` [RALTITREXED] had a 50% inhibitory concentration (IC50) of 5.7 µM.
